Apparent affinities of Ab-14 variants for a coronavirus HR2 peptide

Antigen: PDVDLGDISGINAS, a 14-residue peptide of the SARS-CoV-2 spike HR2 region.

Parent: Ab-14, a human scFv built as VH, a 15-residue (Gly4Ser)3 linker, VL. Only the CDRs of the heavy chain vary.
VH: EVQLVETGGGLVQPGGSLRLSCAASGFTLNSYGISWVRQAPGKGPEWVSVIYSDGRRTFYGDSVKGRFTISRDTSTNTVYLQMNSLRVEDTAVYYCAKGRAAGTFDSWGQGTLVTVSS
VL: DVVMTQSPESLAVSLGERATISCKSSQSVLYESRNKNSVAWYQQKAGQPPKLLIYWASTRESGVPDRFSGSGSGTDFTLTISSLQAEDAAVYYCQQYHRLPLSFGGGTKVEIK

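Phage display of a naive human antibody library on the peptide gave the parent. The library (AAYL49) carries one to three amino acid substitutions per variant, with no insertions or deletions. AlphaSeq pools MATa yeast showing the antibodies with MATalpha yeast showing the peptide. The frequency of each diploid, read from paired DNA barcodes, reflects how well the two displayed proteins bind. A regression on co-assayed BCL2-family reference pairs converts the normalised counts of each replicate to an apparent Kd. Each pool was mated in three replicate cultures.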

Substitutions are numbered in sequence along the VH above, starting at 1 (not Kabat). This list gathers variants with a substitution at N30 (VH, numbered from residue 1). Values are log10 of the apparent Kd in nM; lower means stronger binding. Averages over replicates are reported, and they cover detected replicates only. A pair that was not seen in any replicate is written "nd"; this usually means weak binding, but a binder can also be missed.

Variant N30C+Y52N+F59A showed 4.26 (2 of 3 replicates).
Variant N30M+Y32L+R56I showed 2.76 (3 of 3 replicates).
Variant N30P+V64K showed nd (0 of 3 replicates).
Variant N30W+F105I showed 4.86 (2 of 3 replicates).
Variant N30M showed 0.96 (3 of 3 replicates).
Variant N30E+R57P+D62E showed 4.39 (1 of 3 replicates).
Variant N30A+G99N+T104R showed nd (0 of 3 replicates).
Variant N30R+G55A+T58N showed nd (0 of 3 replicates).
Variant N30F+S35Q+F105Q showed nd (0 of 3 replicates).
Variant N30C+V50F+F59T showed 2.54 (1 of 3 replicates).
Variant G26W+N30A+F105K showed 5.11 (1 of 3 replicates).
Variant N30P+S63C+F105S showed 3.87 (2 of 3 replicates).
Variant N30F+Y32D+D106P showed 3.59 (1 of 3 replicates).
Variant N30T+A101L showed 3.27 (1 of 3 replicates).
Variant N30W+R56S+G103C showed nd (0 of 3 replicates).
Variant N30P+S31P+A102T showed 4.09 (1 of 3 replicates).
Variant N30S+D54F+R56P showed nd (0 of 3 replicates).
Variant T28W+N30I+D54Q showed nd (0 of 3 replicates).
Variant N30C+G61Q+G99C showed 2.17 (3 of 3 replicates).
Variant N30W+Y52G+D62R showed nd (0 of 3 replicates).
Variant N30E+F59V+A101D showed 0.75 (3 of 3 replicates).
Variant L29P+N30C+G33D showed nd (0 of 3 replicates).
Variant N30Y+V50N+V64Q showed 3.93 (1 of 3 replicates).
Variant N30C+Y60V+S107A showed 2.98 (1 of 3 replicates).
Variant N30K+F59S+G103N showed nd (0 of 3 replicates).
Variant G26V+F27V+N30Q showed 2.45 (3 of 3 replicates).
Variant N30D+I34D+I51D showed nd (0 of 3 replicates).
Variant N30W+Y60L+G61T showed nd (0 of 3 replicates).
Variant F27M+N30H+V50Q showed 4.11 (1 of 3 replicates).
Variant N30D+S35I+Y60R showed 5.18 (2 of 3 replicates).
Variant N30M+V50R+D62P showed nd (0 of 3 replicates).
Variant N30D+S63C+S107Y showed 2.97 (3 of 3 replicates).
Variant N30H+A101L showed 0.85 (3 of 3 replicates).
Variant N30K+S35D+G99I showed 4.66 (3 of 3 replicates).
Variant L29V+N30V+R56M showed 3.18 (3 of 3 replicates).
Variant N30Y+S63T+R100F showed 4.36 (3 of 3 replicates).
Variant N30F+R100K+T104S showed 2.98 (3 of 3 replicates).
Variant N30C+G99L+G103S showed 2.92 (3 of 3 replicates).
Variant N30L+S31Y+I34V showed 2.10 (3 of 3 replicates).
Variant N30D+G55Q+D106L showed 5.47 (1 of 3 replicates).
Variant N30L+G61K+S107T showed nd (0 of 3 replicates).
Variant N30H+S31P+S63D showed 4.34 (1 of 3 replicates).
Variant N30H+G33E+S107A showed nd (0 of 3 replicates).
Variant N30M+S31I+G99N showed nd (0 of 3 replicates).
Variant N30R+R57F+A101E showed 4.83 (1 of 3 replicates).

Picked from the list: the 8 lowest averages where every replicate gave a value.

The variant N30E+F59V+A101D gave 0.75 (3 of 3 replicates).
The variant N30H+A101L gave 0.85 (3 of 3 replicates).
The variant N30M gave 0.96 (3 of 3 replicates).
The variant N30L+S31Y+I34V gave 2.10 (3 of 3 replicates).
The variant N30C+G61Q+G99C gave 2.17 (3 of 3 replicates).
The variant G26V+F27V+N30Q gave 2.45 (3 of 3 replicates).
The variant N30M+Y32L+R56I gave 2.76 (3 of 3 replicates).
The variant N30C+G99L+G103S gave 2.92 (3 of 3 replicates).

As a blank, each scFv also met three strains without target: over library AAYL49, 15% of these pairings were detected, typically at 4.06 and seldom below 2.83. In this assay the parent's reference entry averaged 0.65; its copy inside this library read 4.11 (one replicate of three).

Values reported by Engelhart et al. 2022, doi:10.1038/s41597-022-01779-4 (FLAb copy).